Measurements as given in PubChem BioAssay (NCI).
The list shows a part of the results, in another mix than the full data.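 Growth was measured after 48 h exposure to one concentration of compound in 96-well plates. Values under 10 count as active.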 Calls of active or inactive are those of the source.

What was measured:
Assay in all cases: NCI-60 one-dose screen, 48 h (100 = growth as untreated, 0 = no growth, -100 = all killed)
Details in all cases: 10 µM unless noted
NCI-H23 lung = test system: NCI-H23 lung
NCI-H226 lung = test system: NCI-H226 lung
NCI-H322M lung = test system: NCI-H322M lung
HOP-62 NSCLC = test system: HOP-62 NSCLC
NCI-H460 lung = test system: NCI-H460 lung
HOP-92 NSCLC = test system: HOP-92 NSCLC
NCI-H522 lung = test system: NCI-H522 lung
A549/ATCC NSCLC = test system: A549/ATCC NSCLC
786-0 renal = test system: 786-0 renal
COLO 205 colon = test system: COLO 205 colon
DU-145 prostate = test system: DU-145 prostate
K-562 leukemia = test system: K-562 leukemia
MALME-3M melanoma = test system: MALME-3M melanoma
MDA-MB-231 breast = test system: MDA-MB-231 breast
RXF 393 renal = test system: RXF 393 renal
SF-268 CNS = test system: SF-268 CNS
SF-295 CNS = test system: SF-295 CNS
SF-539 CNS = test system: SF-539 CNS
UACC-257 melanoma = test system: UACC-257 melanoma
M14 melanoma = test system: M14 melanoma

Measured: growth

NCCSP(=O)(O)O
inactive: NCI-H23 lung 103% | NCI-H226 lung 94.7% | NCI-H322M lung 106% | HOP-62 NSCLC 103% | NCI-H460 lung 102% | HOP-92 NSCLC 106% | NCI-H522 lung 111% | A549/ATCC NSCLC 104% | 786-0 renal 126% | COLO 205 colon 97.9% | DU-145 prostate 111% | K-562 leukemia 132% | MALME-3M melanoma 129% | MDA-MB-231 breast 102% | RXF 393 renal 118% | SF-268 CNS 96.7% | SF-295 CNS 104% | SF-539 CNS 107% | UACC-257 melanoma 106% | M14 melanoma 105%

O=[N+]([O-])c1cc(Cl)c(O)c([N+](=O)[O-])c1
inactive: NCI-H23 lung 111% | NCI-H226 lung 89.2% | NCI-H322M lung 108% | HOP-62 NSCLC 92.3% | NCI-H460 lung 105% | HOP-92 NSCLC 87.6% | NCI-H522 lung 98.7% | A549/ATCC NSCLC 82% | 786-0 renal 99% | COLO 205 colon 107% | DU-145 prostate 110% | K-562 leukemia 98.1% | MALME-3M melanoma 111% | MDA-MB-231 breast 96.9% | RXF 393 renal 108% | SF-268 CNS 101% | SF-295 CNS 103% | SF-539 CNS 107% | UACC-257 melanoma 81.7% | M14 melanoma 103%

O=C(O[C@H]1CN2CCC1CC2)C1NCc2ccccc2[C@@H]1c1ccccc1 (some centres undefined)
inactive: NCI-H23 lung 99.8% | NCI-H226 lung 92.6% | NCI-H322M lung 95.1% | HOP-62 NSCLC 95.6% | NCI-H460 lung 113% | HOP-92 NSCLC 92.6% | NCI-H522 lung 91.9% | A549/ATCC NSCLC 104% | 786-0 renal 84.3% | COLO 205 colon 92.4% | DU-145 prostate 115% | K-562 leukemia 84.2% | MALME-3M melanoma 108% | MDA-MB-231 breast 96.9% | RXF 393 renal 101% | SF-268 CNS 110% | SF-295 CNS 103% | SF-539 CNS 98% | UACC-257 melanoma 103% | M14 melanoma 95.1%

S=P1(S)SC(Nc2ccccc2)CN1c1ccccc1 (centres undefined)
inactive: NCI-H23 lung 95.6% | NCI-H226 lung 102% | NCI-H322M lung 101% | HOP-62 NSCLC 92.4% | NCI-H460 lung 101% | HOP-92 NSCLC 104% | NCI-H522 lung 88.1% | A549/ATCC NSCLC 112% | 786-0 renal 109% | COLO 205 colon 107% | DU-145 prostate 111% | K-562 leukemia 93.4% | MALME-3M melanoma 92.5% | MDA-MB-231 breast 98.3% | RXF 393 renal 114% | SF-268 CNS 96.3% | SF-295 CNS 101% | SF-539 CNS 101% | UACC-257 melanoma 122% | M14 melanoma 102%

Nc1cccc([As](=O)(O)c2ccccc2)c1
inactive: NCI-H23 lung 102% | NCI-H226 lung 107% | NCI-H322M lung 127% | HOP-62 NSCLC 89% | NCI-H460 lung 106% | HOP-92 NSCLC 109% | NCI-H522 lung 91.4% | A549/ATCC NSCLC 105% | 786-0 renal 97.1% | COLO 205 colon 116% | DU-145 prostate 119% | K-562 leukemia 107% | MALME-3M melanoma 123% | MDA-MB-231 breast 109% | RXF 393 renal 77.2% | SF-268 CNS 103% | SF-295 CNS 110% | SF-539 CNS 90.1% | UACC-257 melanoma 16.4% | M14 melanoma 96.3%

COC(=O)c1ccc(N2CCOP2(=O)Cl)cc1O (centres undefined)
inactive: NCI-H23 lung 117% | NCI-H226 lung 108% | NCI-H322M lung 101% | HOP-62 NSCLC 112% | NCI-H460 lung 110% | HOP-92 NSCLC 69.2% | NCI-H522 lung 94.9% | A549/ATCC NSCLC 92.2% | 786-0 renal 96.7% | COLO 205 colon 104% | DU-145 prostate 106% | K-562 leukemia 95.4% | MALME-3M melanoma 104% | MDA-MB-231 breast 108% | RXF 393 renal 113% | SF-268 CNS 111% | SF-295 CNS 114% | SF-539 CNS 102% | UACC-257 melanoma 84.6% | M14 melanoma 103%

CCN(CCCl)Cc1ccccc1
inactive: NCI-H23 lung 107% | NCI-H226 lung 98.7% | NCI-H322M lung 98.8% | HOP-62 NSCLC 104% | NCI-H460 lung 106% | HOP-92 NSCLC 81.4% | NCI-H522 lung 90.1% | A549/ATCC NSCLC 94.8% | 786-0 renal 100% | COLO 205 colon 102% | DU-145 prostate 112% | K-562 leukemia 102% | MALME-3M melanoma 118% | MDA-MB-231 breast 102% | RXF 393 renal 115% | SF-268 CNS 95.5% | SF-295 CNS 103% | SF-539 CNS 98.3% | UACC-257 melanoma 107% | M14 melanoma 109%

CN(C)P1(Cl)=NP(Cl)(N(C)C)=NP(Cl)(N(C)C)=N1 (centres undefined)
inactive: NCI-H23 lung 102% | NCI-H226 lung 96.2% | NCI-H322M lung 86.2% | HOP-62 NSCLC 92.2% | NCI-H460 lung 106% | HOP-92 NSCLC 103% | NCI-H522 lung 74.2% | A549/ATCC NSCLC 83.1% | 786-0 renal 90.2% | COLO 205 colon 96.2% | DU-145 prostate 110% | K-562 leukemia 88.6% | MALME-3M melanoma 106% | MDA-MB-231 breast 113% | RXF 393 renal 96.5% | SF-268 CNS 104% | SF-295 CNS 97.3% | SF-539 CNS 96.9% | UACC-257 melanoma 82% | M14 melanoma 99.7%

N#CC(C#N)=C(C#N)N(CCCl)CCCl
inactive: NCI-H23 lung 86.2% | NCI-H226 lung 97.2% | NCI-H322M lung 108% | HOP-62 NSCLC 106% | NCI-H460 lung 45.1% | HOP-92 NSCLC 98.3% | NCI-H522 lung 94.4% | A549/ATCC NSCLC 93.5% | 786-0 renal 110% | COLO 205 colon 116% | DU-145 prostate 104% | K-562 leukemia 98.4% | MALME-3M melanoma 106% | MDA-MB-231 breast 103% | RXF 393 renal 115% | SF-268 CNS 98.9% | SF-295 CNS 108% | SF-539 CNS 102% | UACC-257 melanoma 97.7% | M14 melanoma 106%

O=C(Oc1c(Cl)cc(Cl)cc1[N+](=O)[O-])c1cc([N+](=O)[O-])cc([N+](=O)[O-])c1
inactive: NCI-H23 lung 97.3% | NCI-H226 lung 97.4% | NCI-H322M lung 110% | HOP-62 NSCLC 103% | NCI-H460 lung 101% | HOP-92 NSCLC 81.9% | NCI-H522 lung 110% | A549/ATCC NSCLC 101% | 786-0 renal 103% | COLO 205 colon 120% | DU-145 prostate 114% | K-562 leukemia 87.5% | MALME-3M melanoma 132% | MDA-MB-231 breast 109% | RXF 393 renal 109% | SF-268 CNS 101% | SF-295 CNS 106% | SF-539 CNS 105% | UACC-257 melanoma 101% | M14 melanoma 101%

O=[N+]([O-])c1ccc([N+](=O)[O-])cc1
inactive: NCI-H23 lung 91.4% | NCI-H226 lung 106% | NCI-H322M lung 115% | HOP-62 NSCLC 112% | NCI-H460 lung 115% | HOP-92 NSCLC 91.6% | NCI-H522 lung 105% | A549/ATCC NSCLC 98.6% | 786-0 renal 113% | COLO 205 colon 108% | DU-145 prostate 97.4% | K-562 leukemia 123% | MALME-3M melanoma 104% | MDA-MB-231 breast 82.6% | RXF 393 renal 110% | SF-268 CNS 83.7% | SF-295 CNS 118% | SF-539 CNS 97.8% | UACC-257 melanoma 91.2%

CCOP(=O)(NC1CCCCC1)OCC
inactive: NCI-H23 lung 111% | NCI-H226 lung 102% | NCI-H322M lung 95% | HOP-62 NSCLC 104% | NCI-H460 lung 108% | HOP-92 NSCLC 92.6% | NCI-H522 lung 93.1% | A549/ATCC NSCLC 100% | 786-0 renal 103% | COLO 205 colon 111% | DU-145 prostate 112% | K-562 leukemia 98.1% | MALME-3M melanoma 116% | MDA-MB-231 breast 105% | RXF 393 renal 123% | SF-268 CNS 99% | SF-295 CNS 108% | SF-539 CNS 104% | UACC-257 melanoma 101% | M14 melanoma 101%

ClCCN(Cc1ccc(Cl)cc1)Cc1ccc(Cl)cc1
inactive: NCI-H23 lung 93.4% | NCI-H226 lung 112% | NCI-H322M lung 108% | HOP-62 NSCLC 110% | NCI-H460 lung 84.6% | HOP-92 NSCLC 35.7% | NCI-H522 lung 43.3% | A549/ATCC NSCLC 91.3% | 786-0 renal 96.1% | COLO 205 colon 99.6% | DU-145 prostate 101% | K-562 leukemia 87% | MALME-3M melanoma 122% | MDA-MB-231 breast 98.1% | RXF 393 renal 79.1% | SF-268 CNS 79.5% | SF-295 CNS 58.7% | SF-539 CNS 95.8% | UACC-257 melanoma 94.9% | M14 melanoma 113%

O=C1CSC(C(Cl)(Cl)Cl)N1c1ccc(Cl)cc1 (centres undefined)
inactive: NCI-H23 lung 98.8% | NCI-H226 lung 98.8% | NCI-H322M lung 87.6% | HOP-62 NSCLC 102% | NCI-H460 lung 101% | HOP-92 NSCLC 77.1% | NCI-H522 lung 84.8% | A549/ATCC NSCLC 96.2% | 786-0 renal 107% | COLO 205 colon 109% | DU-145 prostate 109% | K-562 leukemia 93.5% | MALME-3M melanoma 112% | MDA-MB-231 breast 87.9% | RXF 393 renal 106% | SF-268 CNS 98.6% | SF-295 CNS 84.5% | SF-539 CNS 109% | UACC-257 melanoma 97.9% | M14 melanoma 97.5%

COc1ccc(C2N=C(NN=C(CCl)CCl)SP2(=O)Nc2ncccn2)c(OC)c1 (centres undefined)
inactive: NCI-H23 lung 95.9% [100 µM] | NCI-H226 lung 83.1% [100 µM] | NCI-H322M lung 90.4% [100 µM] | HOP-62 NSCLC 94% [100 µM] | NCI-H460 lung 103% [100 µM] | HOP-92 NSCLC 99.8% [100 µM] | NCI-H522 lung 111% [100 µM] | A549/ATCC NSCLC 104% [100 µM] | 786-0 renal 106% [100 µM] | COLO 205 colon 122% [100 µM] | DU-145 prostate 104% [100 µM] | K-562 leukemia 105% [100 µM] | MALME-3M melanoma 102% [100 µM] | MDA-MB-231 breast 84% [100 µM] | RXF 393 renal 104% [100 µM] | SF-268 CNS 101% [100 µM] | SF-295 CNS 103% [100 µM] | SF-539 CNS 91.4% [100 µM] | UACC-257 melanoma 104% [100 µM] | M14 melanoma 92.9% [100 µM]
